Assays:
PTH/PTHrP receptor [1] = target: T1, PTH/PTHrP receptor (Homo sapiens, UniProt Q03431); test: Competition radioligand binding, COS-7 cells transfected with human PTH/PTHrP receptor; conditions: read-out: Binding IC50, PTH/PTHrP receptor, radioligand 125I-[Nle8,21,Y34]rPTH-(1-34)NH2, 2 hours at room temperature, mean ± s.e.m.
T1 construct: expressed in transfected cells; host or cells: COS-7 cells, transient transfection, vector pcDNA-1
T1 sequence (Q03431 27-593): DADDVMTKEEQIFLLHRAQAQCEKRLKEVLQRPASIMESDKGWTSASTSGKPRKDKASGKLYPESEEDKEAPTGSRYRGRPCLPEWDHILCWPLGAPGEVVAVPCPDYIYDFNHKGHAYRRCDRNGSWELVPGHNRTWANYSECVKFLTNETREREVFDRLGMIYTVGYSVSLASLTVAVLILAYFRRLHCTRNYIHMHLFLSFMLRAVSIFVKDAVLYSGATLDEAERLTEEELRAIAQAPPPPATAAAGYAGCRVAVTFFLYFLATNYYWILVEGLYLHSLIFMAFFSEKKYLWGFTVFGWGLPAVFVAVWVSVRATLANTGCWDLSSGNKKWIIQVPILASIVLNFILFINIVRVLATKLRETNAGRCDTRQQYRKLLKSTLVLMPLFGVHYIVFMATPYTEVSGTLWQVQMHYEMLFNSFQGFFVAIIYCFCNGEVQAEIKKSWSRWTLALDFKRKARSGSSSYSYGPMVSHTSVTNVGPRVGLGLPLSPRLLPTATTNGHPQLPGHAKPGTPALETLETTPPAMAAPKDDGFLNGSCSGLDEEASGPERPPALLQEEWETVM
Protocol: (§1) The cDNAs encoding the human PTH/PTHrP receptor (Schipani, E. et al., Endocrinology 132:2157-2165 (1993)) and the human PTH-2 receptor (Usdin, T. et al., J. Biol. Chem. 270:15455-15458 (1995)) were carried on the expression vectors pcDNA-1 and pcDNAI/Amp (InVitrogen, San Diego, Calif.), respectively. COS-7 cells were cultured and transfected as described previously (Lee, C. et al., Mol. Endocrinol. 9:1269-1278 (1995)). Cells were transfected in 24-well plates using plasmid DNA (200 ng/well) purified by cesium chloride/ethidium bromide gradient centrifugation. Ligand binding and cAMP accumulation assays were performed three days after transfection, by which time the cell density reached 500,000±100,000 cells/well.
(§2) Binding reactions were performed as described previously. Id. Each well (final volume: […]) contained 26 fmole of ^125I-[Nle^8,21,Tyr^34]rPTH(1-34)NH2 (100,000 CPM) and various amounts (0.4-300 pmole) of an unlabeled competitor ligand, both diluted in binding buffer (50 mM Tris-HCl, pH 7.7, 100 mM NaCl, 5 mM KCl, 2 mM CaCl, 5% heat-inactivated horse serum, 0.5% heat-inactivated fetal bovine serum). Incubations were at room temperature for 2 hours, except for experiments involving Scatchard analysis, which were performed at 4° C. for 6 hours. At the end of the binding reaction, the cells were rinsed 3 times with 0.5 ml of binding buffer, lysed with 0.5 ml of 5M NaOH, and the entire lysate was counted. Nonspecific binding of tracer (NSB), determined in wells containing 1 μM of [NleTyr^8,21,Tyr^34]rPTH-(1-34)NH2, was ˜1% of total counts added. Maximum specific binding (B0) was calculated as the total radioactivity bound to cells in the absence of unlabeled PTH ligand, minus NSB. […] For Scatchard analyses, homologous competition binding studies were performed that used ^125I-[-NleTyr^8,21,Tyr^34]rPTH-(1-34)NH2 (26 fmole/well) and varying amounts (1.2-300 pmol) of the same unlabeled ligand. Estimates of the number of receptors/cell derived from these studies assumed a single class of binding sites and a transfection efficiency of 20% (Abou-Samra, A. B. et al., Proc. Natl. Acad. Sci (USA) 89:2732-2736 (1992)).

Sequences of proteins named here, by UniProt entry; tags and fusion partners are left off. Residues count along the entry.
UniProt P49190, 25-550: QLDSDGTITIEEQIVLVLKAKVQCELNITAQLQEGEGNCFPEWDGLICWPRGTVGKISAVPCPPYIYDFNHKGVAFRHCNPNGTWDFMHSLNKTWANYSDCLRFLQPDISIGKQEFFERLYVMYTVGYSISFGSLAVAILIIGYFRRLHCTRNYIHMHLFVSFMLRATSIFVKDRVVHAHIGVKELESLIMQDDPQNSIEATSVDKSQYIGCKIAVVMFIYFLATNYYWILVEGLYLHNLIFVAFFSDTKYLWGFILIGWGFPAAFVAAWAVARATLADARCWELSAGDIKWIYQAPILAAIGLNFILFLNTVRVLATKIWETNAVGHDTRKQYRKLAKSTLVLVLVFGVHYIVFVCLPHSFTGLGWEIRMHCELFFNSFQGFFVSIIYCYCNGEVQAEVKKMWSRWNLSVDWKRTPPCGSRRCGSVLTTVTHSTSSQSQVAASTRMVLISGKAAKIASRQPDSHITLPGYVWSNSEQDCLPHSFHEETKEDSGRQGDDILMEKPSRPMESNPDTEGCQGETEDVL

PTH-2 receptor [2] = target: T2, PTH-2 receptor (Homo sapiens, UniProt P49190); test: Competition radioligand binding, COS-7 cells transfected with human PTH-2 receptor; conditions: read-out: Binding IC50, PTH-2 receptor, radioligand 125I-[Nle8,21,Y34]rPTH-(1-34)NH2, 2 hours at room temperature, mean ± s.e.m.
T2 construct: expressed in transfected cells; host or cells: COS-7 cells, transient transfection, vector pcDNAI/Amp
Protocol: as §1, §2

PTH/PTHrP receptor [3] = target: T1, PTH/PTHrP receptor; test: Ligand-induced intracellular cAMP accumulation, COS-7 cells expressing human PTH/PTHrP receptor; assay type: cell-based; conditions: read-out: cAMP accumulation EC50, PTH/PTHrP receptor, 1h at room temperature, IBMX, mean ± s.e.m.
Protocol: as §1
(§3) Transfected COS-7 cells were rinsed with […] of binding buffer. 200 μl of IBMX buffer (DMEM containing 2 mM IBMX, 1 mg/ml bovine serum albumin, 35 mM Hepes-NaOH, pH 7.4) and […] of binding buffer or binding buffer containing various amounts of a PTH or PTHrP analog were then added. The plates were incubated for 60 minutes at room temperature. The buffer was then withdrawn and the cells lysed by placing the plates on powdered dry ice and adding 0.5 ml of 50 mM HCl. The acid lysate was diluted 1/30 in dH2O, and an aliquot (5-50 μl) analyzed for cAMP content by radioimmunoassay. […] For antagonist studies, the inhibitor peptide [Leu^11,D-Trp^12]hPTHrP(7-34)NH2or [Trp^23,Tyr^36]hPTHrP-(1-36)N2H was applied to COS-7 cells in 100 μl of binding buffer two minutes prior to the addition of IBMX buffer that contained a near-maximal stimulatory dose (1.5 nM) of [Tyr^34]hPTH-(1-34)NH2 agonist peptide. The cells were then incubated for 30 minutes at room temperature, and the resulting intracellular cAMP was measured by RIA. Data were analyzed using the AssayZap software (Elsevier Science Publishers BV, Cambridge, United Kingdom).

PTH-2 receptor [4] = target: T2, PTH-2 receptor; test: Ligand-induced intracellular cAMP accumulation, COS-7 cells expressing human PTH-2 receptor; assay type: cell-based; conditions: read-out: cAMP accumulation EC50, PTH-2 receptor, 1h at room temperature, IBMX, mean ± s.e.m.
Protocol: as §1, §3

Substance	IC50 (PTH/PTHrP receptor [1]) [µM]	IC50 (PTH-2 receptor [2]) [µM]	EC50 (PTH/PTHrP receptor [3]) [µM]	EC50 (PTH-2 receptor [4]) [µM]
[Trp^23,Tyr^36]hPTHrP-(1-36) [[W23, Y36]hPTHrP-(1-36)NH2]	0.047 ± 0.008	0.03 ± 0.007	0.00026 ± 5e-05	> 1
hpTHrP-(1-14)/[Y34]hPTH-(15-34)NH2 [Hybrid-1]	7.9	0.606 ± 0.096	0.00023 ± 4e-05	> 1
[H5, Y34]hPTH-(1-34)NH2	5.1	0.249 ± 0.018	0.00093 ± 0.00037	> 1
